Data taken from patent US12636284B2, “Compositions for use in the prevention and/or treatment of intellectual disability and neurodegenerative diseases in a subject with down syndrome” (UNIVERSITA' DEGLI STUDI DI ROMA “LA SAPIENZA”, priority 2021, dated 2026).

Key:
[1] = test system: phosphorylated Tau (pTau Ser404); assay: Immunofluorescence of p-Tau Ser404 in brain sections; assay type: in vivo, mouse; details: hippocampus
Method: (§1) Immunofluorescence was performed on the brains of euploid and Ts2Cje mice treated with vehicle, and the Ts2Cje group treated with sitagliptin. Brains were placed in 4% paraformaldehyde for 24 hours. Brains were then fixed over the subsequent 48 hours in a 20% sucrose solution. Brain sections were then cut to a thickness of 15 μm using a cryostat (Leica System) and stored in an aqueous solution of PBS containing 0.02% NaN3 at 4° C. until use. Slices thus obtained were mounted on slides and were blocked and permeabilized by blocking solution (10% of normal goat serum and 0.2% Triton X-100 in TBS) for 2 hours. Subsequently, sections were incubated overnight at 4° C. with the following antibodies: GABA receptor α2 (1:500, Synaptic System, #224-103) and gephyrin (1:250, Synaptic System, #147-111), p-Tau Ser404 (1:500, Abcam, #92676), sintaxin-1 (1:250, Genetex, #GTX113559) and PSD95 (1:250, Abcam, #ab18258), BDNF (1:200, Santa Cruz, sc-546).
The following day, the same slices were incubated with a mix of fluorescent secondary antibodies, to evaluate the co-localization of the two proteins, anti-mouse Alexa Fluor 488 nm for gephyrin and anti-rabbit Alexa Fluor 594 nm for GABA α2 (1:1500, Invitrogen, Carlsbad, California, CA, USA) for 2 hours at room temperature. The slices were then washed again and incubated with DAPI nuclear marker (1:10000, Invitrogen, Carlsbad, California, CA, USA). […]

[2] = test system: sintaxin-1, PSD95 and BDNF; assay: Immunofluorescence of sintaxin-1, PSD95 and BDNF in brain sections; assay type: in vivo, mouse; details: hippocampus
Method: as §1
The following day, the same slices were incubated with a mix of fluorescent secondary antibodies, to evaluate the co-localization of the two proteins, anti-mouse Alexa Fluor 488 nm for gephyrin and anti-rabbit Alexa Fluor 594 nm for GABA α2 (1:1500, Invitrogen, Carlsbad, California, CA, USA) for 2 hours at room temperature. The slices were then washed again and incubated with DAPI nuclear marker (1:10000, Invitrogen, Carlsbad, California, CA, USA). To subtract the non-specific background signal created by the secondary antibody, some sections were incubated only with the secondary antibody. Finally, the sample was sealed with a cover slip via fluorimount (Sigma-Aldrich, St Louis, MO, USA). The acquisition and analysis of brain sections was carried out using Leica TCS SP5× confocal microscopy and ImageJ analysis software.

N[C@@H](CC(=O)N1CCn2c(nnc2C(F)(F)F)C1)Cc1cc(F)c(F)cc1F [sitagliptin, (R)-4-oxo-4-[3-(trifluoromethyl)-5,6-dihydro[1,2,4]triazole[4,3-a]pyrazin-7(8H)-yl]-1-(2,4,5-trifluorophenyl)butan-2-amine] was tested, and the “phosphorylated Tau (Ser404) levels” value [1] was “reduction”, the BDNF levels [2] was “increase” and the PSD95 levels [2] was “increase”. For the same compound, the sintaxin-1 levels [2] was “increase”.
